Literature values as cited in US20220001039A1, “COMPOSITIONS AND METHODS FOR DETECTING ACE2 EXPRESSION PROFILES” (Washington University, priority 2020, published 2022).

Settings: in vivo; cited from earlier work

In the case of 18F-Fluorodeoxyglucose [18F-FDG], the whole-body effective dose is given as 0.019 mSv/MBq.
